TDP1 cell CPT: DT40-hTDP1 cell growth loss with CPT; chicken DT40 Tdp1-/-;hTDP1 cells + 20 nM CPT, ATP luminescence, 48 h; Potency, µM (top dose mostly 46.2 µM), inactives show top-dose activity change, negative = growth inhibition, hits mostly inhibitors; hit rate 12% among 420,000; also: potency is read from the fitted curve at half-maximal effect; % is scaled to controls: 0 for no effect and ±100 for the full control effect; nearly all actives have a fitted effect of over 55% in size
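Cell growth measured by CellTiter-Glo luminescence after a minimum 48 h, 37 C compound exposure with 20 nM CPT in Tdp1-knockout DT40 cells stably expressing hTDP1, seeded 400/well; qHTS titration format.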
TDP1 inh: TDP1 (human) enzyme inhibition. Q9NUW8. recombinant TDP1, AlphaScreen DNA substrate cleavage. Potency, µM (titrated, usually from 130 µM), for the others: top-dose activity change, negative = inhibition, actives largely listed as inhibitors. hit rate 0.28% among 350,000. AID 485290; also: potency is read from the fitted curve at half-maximal effect; % is scaled to controls: 0 for no effect and ±100 for the full control effect; nearly all actives have a fitted effect of over 40% in size
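Tdp1 1 nM final; 15 min RT w/ cpd; substrate 15 nM, 5 min; beads 10 ug/ml, 10 min; AlphaScreen read. Neg ctrl: no enzyme.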
uPA surface inh: blocks generation of uPA at the cell surface | cell surface uPA generation assay, qHTS | Potency, µM (top dose mostly 38.3 µM), inactives show at the top dose activity change, negative = inhibition, usual class: inhibitors | hit rate 0.31% among 330,000 | AID 540303; active = well fitted inhibition curve with a large enough effect; inconclusive = small, poorly fitted or top-dose-only effect; inactive = no such curve, though single readings can be large or run the other way; tested in mouse RAW 264.7 cells; also: potency is read from the fitted curve at half-maximal effect; % is scaled to controls: 0 for no effect and ±100 for the full control effect; nearly all actives have a fitted effect of over 55% in size
miR-21 FLuc: miR-21 reporter, rising signal | HeLa miR-21 FLuc reporter, luciferase, 48 h | Potency, µM (top dose mostly 38.3 µM), inactives show at the top dose reporter change, positive = more light | 340,000 tested, under 10 active | AID 2288; active = well fitted rising curve with a large enough effect; inconclusive = small, poorly fitted or top-dose-only effect; inactive = no such curve, though single readings can be large or run the other way;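 further: % of control where 0% means no effect; miR-21 action dims this reporter so a rising signal means less miR-21 action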
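Using DMEM plus 10% FBS, HeLa miR-21-FLuc cells are incubated with test compounds (final up to about 40uM) for 48 hours; firefly luciferase signal is then imaged following reagent-mediated lysis.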
TDP1 cell noCPT: qHTS for Inhibitors of human tyrosyl-DNA phosphodiesterase 1 (TDP1): qHTS in cells in absence of CPT; AID 686978, 2013; hit rate 15% among 420,000; Potency, µM (top dose mostly 46.2 µM), for the others: top-dose activity change, negative = growth inhibition, usual class: inhibitors; DT40 Tdp1-/- hTDP1 cells, no CPT, ATP luminescence, 48 h; also: potency is read from the fitted curve at half-maximal effect; % is scaled to controls: 0 for no effect and ±100 for the full control effect; nearly all actives have a fitted effect of over 55% in size
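Luminescent ATP content (CellTiter-Glo) served as the growth readout. Knockout chicken DT40 cells expressing human TDP1 were exposed to compounds without camptothecin for a minimum 48 hr at 37 °C.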
An asterisk follows results filed as active; ? = inconclusive; / = not tested or not shown. Most compounds without a hit are left out; they make up all but 16% or so of the library. Unless noted, calls follow the shape of the dose curve; as a rule, active = well fitted curve in the direction sought with a large enough effect; inconclusive = small, poorly fitted or top-dose-only effect, or another doubt; inactive = no such curve, though single readings can be large; an effect the other way counts as inactive or inconclusive.

[1] Cn1c(C(=O)N2CCN(Cc3ccccc3)CC2)cc2c(=O)n(C)c3ccccc3c21
[2] CCOC(=O)N1CCN(C(=O)c2cc3c(=O)n(C)c4ccccc4c3n2C)CC1
[3] COc1ccc(NC(=O)CN2CCN(CC#N)CC2)cc1
[4] O=C1C=C(c2ccc(F)nc2)C[C@@H](c2ccc3c(c2)OCO3)C1
[5] COC(=O)c1cc(-c2c(C)oc3cc(OC(C)C)ccc3c2=O)c(C)o1
[6] COC(=O)c1cc(=O)c2ccc(OC)cc2o1
[7] CC1(C)CC(=O)C(/C=N/n2cnc3ccccc3c2=O)=C(O)C1
[8] C=CCS/C(=N\n1cnc2ccccc2c1=O)N1CCCCC1
[9] C=CCS/C(=N\n1cnc2ccccc2c1=O)N(CC)CC
[10] Cc1cc(-c2ccccc2)nc(N2CCC(C(=O)NC(C)C)CC2)n1

| Compound | 1 | 2 | 3 | 4 | 5 | 6 | 7 | 8 | 9 | 10 |
| --- | --- | --- | --- | --- | --- | --- | --- | --- | --- | --- |
| uPA surface inh | ? | 2% | -4% | -1% | 4% | / | -2% | 0% | -3% | / |
| TDP1 cell noCPT | ? | 16µM* | 1% | ? | 15µM* | 1% | -12% | 18µM* | 18µM* | -20% |
| TDP1 inh | 2% | 3% | / | 1% | 2% | 2% | 5% | -2% | 2% | 2% |
| TDP1 cell CPT | 18µM* | 21µM* | 16% | -29% | 15µM* | -2% | -11% | 26µM* | ? | -28% |
| miR-21 FLuc | 1% | 0% | 0% | / | 0% | 0% | -18% | -32% | -16% | -8% |

[11] CCC(=O)N1CCc2cc(Br)cc(S(=O)(=O)N3CCCC(C(=O)Nc4cccc(Cl)c4C)C3)c21 (stereo unspecified)
[12] CCC(=O)N1CCc2cc(Br)cc(S(=O)(=O)CCC(=O)NCCc3cccc(C)c3)c21
[13] CCC(=O)N1CCc2cc(Br)cc(S(=O)(=O)N3CCCC(C(=O)Nc4ccc(OC)c(Cl)c4)C3)c21 (stereo unspecified)
[14] CCC(=O)N1CCc2cc(Br)cc(S(=O)(=O)NCCc3ccccc3Cl)c21
[15] CC(=O)Nc1cccc(NC(=O)C2CCN(C(=O)c3ccco3)CC2)c1
[16] CN(c1ccc(C(=O)NCCSCc2ccc(Cl)cc2)cc1)S(=O)(=O)c1ccccc1
[17] CC(=O)Nc1ccc(S(=O)(=O)NCCSCc2ccccc2Cl)cc1
[18] Cc1ccc(CSCCNS(=O)(=O)c2ccccc2)cc1
[19] Cc1ccc(CSCCNS(C)(=O)=O)cc1
[20] Cc1ccc(CSCCNC(=O)c2ccc(N(C)S(=O)(=O)c3ccccc3)cc2)cc1

| Compound | 11 | 12 | 13 | 14 | 15 | 16 | 17 | 18 | 19 | 20 |
| --- | --- | --- | --- | --- | --- | --- | --- | --- | --- | --- |
| uPA surface inh | / | / | / | / | 2% | -3% | -3% | 3% | -5% | -9% |
| TDP1 cell noCPT | 12µM* | 23µM* | ? | 21µM* | -5% | 16µM* | 18µM* | 29µM* | -20% | 15µM* |
| TDP1 inh | -2% | 0% | 0% | 3% | 0% | 1% | 3% | 5% | 2% | 5% |
| TDP1 cell CPT | 15µM* | 16µM* | -15% | 16µM* | 5% | 16µM* | 9.2µM* | -23% | -8% | ? |
| miR-21 FLuc | -6% | 0% | -2% | 21% | -1% | 4% | 13% | -9% | -5% | 1% |

Among those listed so far, two contain a furan ring, fused or not:
[5] COC(=O)c1cc(-c2c(C)oc3cc(OC(C)C)ccc3c2=O)c(C)o1
[15] CC(=O)Nc1cccc(NC(=O)C2CCN(C(=O)c3ccco3)CC2)c1

| Compound | 5 | 15 |
| --- | --- | --- |
| uPA surface inh | 4% | 2% |
| TDP1 cell noCPT | 15µM* | -5% |
| TDP1 inh | 2% | 0% |
| TDP1 cell CPT | 15µM* | 5% |
| miR-21 FLuc | 0% | -1% |

Other compounds:
[21] Cn1ccc(NC(=O)c2ccc([N+](=O)[O-])cc2)n1
[22] Cc1ccc(C(=O)COC(=O)c2cc(Cl)nc3ccccc23)cc1
[23] Cn1c(SCC(=O)NC(=O)Cc2ccccc2)nnc1-c1ccc(F)cc1
[24] CCOc1ccc(NC(=O)N2CCC(n3c(C)nc4cccnc43)CC2)cc1
[25] O=C1Nc2ccc(Cl)cc2C12Nc1ccccc1-c1nnc(SCc3ccccc3F)nc1O2 (stereo unspecified)
[26] Cc1ccc(C(=O)Nc2ccc3c(c2)N(C)C(=O)c2ccccc2S3)cc1
[27] CN1C(=O)c2ccccc2Sc2ccc(NC(=O)c3ccccc3F)cc21
[28] CCN1C(=O)c2ccccc2Sc2ccc(NC(=O)c3ccc(C#N)cc3)cc21
[29] CCN1C(=O)c2ccccc2Sc2ccc(NC(=O)Nc3cccc([N+](=O)[O-])c3C)cc21

| Compound | 21 | 22 | 23 | 24 | 25 | 26 | 27 | 28 | 29 |
| --- | --- | --- | --- | --- | --- | --- | --- | --- | --- |
| uPA surface inh | 7% | 0% | 1% | / | 3% | / | / | / | / |
| TDP1 cell noCPT | -11% | -8% | -9% | -11% | ? | 2.3µM* | 15µM* | 16µM* | ? |
| TDP1 inh | 1% | -2% | 2% | 4% | -8% | 5% | 1% | 3% | 7% |
| TDP1 cell CPT | 1% | 0% | -1% | -1% | 15µM* | 5.2µM* | 18µM* | 21µM* | 21µM* |
| miR-21 FLuc | / | -4% | / | -8% | -15% | ? | 29% | -2% | 1% |
